Data taken from patent US5536737A, “Compound having prolyl endopeptidase inhibitory activity and pharmaceutical use thereof” (Japan Tobacco Inc., priority 1992, dated 1996).

Biological target: T1, prolyl endopeptidase (Rattus norvegicus, UniProt O70196)
T1 construct: prolyl endopeptidase extracted from rat brain; from tissue; host or cells: rat brain
T1 sequence (O70196 1-710): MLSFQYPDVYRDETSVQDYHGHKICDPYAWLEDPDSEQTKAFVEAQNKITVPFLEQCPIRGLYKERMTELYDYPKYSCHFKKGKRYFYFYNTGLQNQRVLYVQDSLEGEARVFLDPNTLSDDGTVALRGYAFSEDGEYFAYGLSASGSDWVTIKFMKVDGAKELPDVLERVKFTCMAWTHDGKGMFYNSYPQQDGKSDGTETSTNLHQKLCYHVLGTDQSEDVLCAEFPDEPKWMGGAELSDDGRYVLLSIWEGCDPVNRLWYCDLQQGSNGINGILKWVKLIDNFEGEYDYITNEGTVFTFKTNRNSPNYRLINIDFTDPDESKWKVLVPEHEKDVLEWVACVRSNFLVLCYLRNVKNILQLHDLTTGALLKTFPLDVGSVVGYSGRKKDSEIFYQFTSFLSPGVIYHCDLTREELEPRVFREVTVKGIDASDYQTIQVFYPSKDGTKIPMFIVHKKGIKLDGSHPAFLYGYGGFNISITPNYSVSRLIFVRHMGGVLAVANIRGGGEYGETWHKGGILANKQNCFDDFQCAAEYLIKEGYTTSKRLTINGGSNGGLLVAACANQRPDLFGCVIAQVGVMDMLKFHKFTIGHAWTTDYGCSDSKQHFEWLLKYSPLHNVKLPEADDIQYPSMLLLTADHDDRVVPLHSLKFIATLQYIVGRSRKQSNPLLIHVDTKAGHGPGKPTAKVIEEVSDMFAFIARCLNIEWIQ
Assay: Prolyl endopeptidase-inhibitory activity
Format: biochemical
Conditions: rat brain enzyme, pH 7.0, 30° C., 1 hour; read-out: IC50 (prolyl endopeptidase inhibition)
Procedure: Prolyl endopeptidase-inhibitory activity
A mixture of a 0.1M potassium-sodium phosphate buffer (pH 7.0, 2675 μl ), a solution of the compound of the present invention in a 0.1M potassium-sodium phosphate buffer (pH 7.0, 100 μl ) and a solution of prolyl endopeptidase extracted from rat brain in a 25 mM sodium phosphate buffer (100 μl ) [123 unit/1, pH 6.8, containing 1 mM dithiothreitol and 0.5 mM EDTA, prepared by the method described in J. Neurochem., 35, 527 (1980)] was preincubated at 30° C. for 30 minutes. Thereto was added a 0.2 mM solution of 7-(N-succinyl-glycyl-prolyl)-4methylcoumarinamide (Peptide Institute, INC.) in a 0.1M potassium-sodium phosphate buffer (pH 7.0, 125 μl), and the mixture was incubated at 30° C. for 1 hour. The reaction mixture was immersed in ice (0° C.) to terminate the reaction, and the fluorescence (a1) was determined ten minutes later (excitation at 370 nm and emission at 440 nm). Concurrently, an experiment wherein, in the above system, the prolyl endopeptidase solution was substituted for a 25 mM sodium phosphate buffer (pH 6.8, containing 1 mM dithiothreitol and 0.5 mM EDTA) and an experiment wherein the solution of the compound of the present invention was substituted for a 0.1M potassium-sodium phosphate buffer (pH 7.0) were conducted. Each fluorescence (a2 and a3) was determined [See Tanpakushitsu Kakusan Koso, 29, 127 (1984)]. […]

Compound: O=C(CO)[C@@H]1CCCN1C(=O)[C@@H]1CCCN1C(=O)NCc1ccccc1 [Compound 2, (S)-2-[[(S)-2-(Hydroxyacetyl)-1-pyrrolidinyl]carbonyl]-N-(phenylmethyl)-1-pyrrolidinecarboxamide]
- IC50: 100 pM
